For assay [1], the target named is T1, 5-HT1A receptor (Rattus norvegicus, UniProt P19327). Put plainly: 5-HT1A receptor binding affinity in rat hippocampal membrane homogenate. The note with it: for Ratio 5HT1A / α1 (binding selectivity): ratio of 5-HT1A binding to α1 binding; for IC50: read-out: 5HT1A binding IC50, rat hippocampal membrane homogenate.
A further assay has as its target α1 receptor. Put plainly: α1 receptor binding affinity. The note with it: read-out: α1 binding IC50.
The target of assay [2] is T1, 5-HT1A receptor. Put plainly: Oral 5-HT1A receptor antagonist activity: antagonism of 8-OH-DPAT syndrome in rats. Particulars: for 5-HT1A antagonist activity MED: po, 60 min before i.v. 8-OH-DPAT, lowest dose at which ED50 confidence limits do not overlap vehicle; for 5-HT1A antagonist Ratio (ED50 antagonist @ 3mg/kg po)/ED50 vehicle: ED50 of 8-OH-DPAT (i.v.) after test compound 3 mg/kg p.o. divided by ED50 after vehicle.

Protein sequences, listed by entry. Tags and fused reporters are not part of them.
UniProt P19327, whole entry: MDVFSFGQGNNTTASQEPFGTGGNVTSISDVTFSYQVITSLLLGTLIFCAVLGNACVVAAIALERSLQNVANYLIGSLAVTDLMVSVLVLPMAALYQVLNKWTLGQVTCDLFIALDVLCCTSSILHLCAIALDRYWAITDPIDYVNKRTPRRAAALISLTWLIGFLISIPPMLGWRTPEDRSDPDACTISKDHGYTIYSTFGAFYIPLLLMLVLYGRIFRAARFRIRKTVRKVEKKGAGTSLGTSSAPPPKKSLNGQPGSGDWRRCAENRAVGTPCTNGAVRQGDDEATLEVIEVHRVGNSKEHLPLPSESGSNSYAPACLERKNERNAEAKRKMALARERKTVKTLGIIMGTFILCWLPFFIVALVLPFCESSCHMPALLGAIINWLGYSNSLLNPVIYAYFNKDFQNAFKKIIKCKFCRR

Read-outs that look alike come from different tables or passages of the source. Some results are limits rather than exact numbers.

Turning to `O=C(C1CCCCC1)N(CCN1CCN(c2cccc3c2CCCC3)CC1)c1ccccn1`, the Ratio 5HT1A / α1 (binding selectivity) at 5-HT1A receptor [1] (tested form: 2HCl) was 69.8. The values for the IC50 at 5-HT1A receptor [1] (tested form: 2HCl) and at α1 receptor (tested form: 2HCl) were 8 nM and 558 nM, respectively. On 5-HT1A receptor [2] (tested form: 2HCl), the “5-HT1A antagonist activity MED” value is given as 10 mg/kg.

With `O=C(C1CCCCC1)N(CCN1CCN(c2ccccc2O)CC1)c1ccccn1`, at 5-HT1A receptor [2] (tested form: HCl), the “5-HT1A antagonist Ratio (ED50 antagonist @ 3mg/kg po)/ED50 vehicle” value came out at 7.0 and the “5-HT1A antagonist activity MED” value is on record as 10 mg/kg.

For `COc1cc(F)ccc1N1CCN(CCN(C(=O)C2CCCCC2)c2ccccn2)CC1`, on 5-HT1A receptor [1] (tested form: 3HCl), the Ratio 5HT1A / α1 (binding selectivity) was determined as 197 and the half-inhibitory concentration (IC50) was 1 nM. The IC50 at α1 receptor (tested form: 3HCl) is 197 nM. The “5-HT1A antagonist activity MED” value at 5-HT1A receptor [2] (tested form: 3HCl) is on record as 10 mg/kg.

On to `COc1ccccc1N1CCN(CCN(C(=S)C2CCCCC2)c2ccccn2)CC1`, for which the Ratio 5HT1A / α1 (binding selectivity) on 5-HT1A receptor [1] (tested form: 2HCl) came out at 15.5. The IC50 at 5-HT1A receptor [1] (tested form: 2HCl) was determined as 1.8 nM; at α1 receptor (tested form: 2HCl), 28 nM.

For the compound `O=C(C1CCCCC1)N(CCN1CCN(c2cccc3ccccc23)CC1)c1ccccn1`, at 5-HT1A receptor [1] (tested form: 2HCl), the Ratio 5HT1A / α1 (binding selectivity) is 347 and the IC50 came to 2.3 nM. For the same compound, the IC50 at α1 receptor (tested form: 2HCl) was 798 nM. Moreover, the “5-HT1A antagonist activity MED” value at 5-HT1A receptor [2] (tested form: 2HCl) stood at 3 mg/kg.

As to `COc1ccccc1N1CCN(CCN(C(=O)C(C)(C)C)c2ccccn2)CC1`, at 5-HT1A receptor [1] (tested form: 3HCl), the Ratio 5HT1A / α1 (binding selectivity) worked out at 4 and the IC50 stood at 60 nM. Besides, the IC50 at α1 receptor (tested form: 3HCl) worked out at 245 nM.

As to `O=C(C1CCCCC1)N(CCN1CCN(c2ccccc2F)CC1)c1ccccn1`, at 5-HT1A receptor [1] (tested form: maleate hydrate), the Ratio 5HT1A / α1 (binding selectivity) worked out at 19.7 and the half-maximal inhibitory concentration (IC50) came out at 6.4 nM. The IC50 at α1 receptor (tested form: maleate hydrate) amounted to 126 nM.

Consider `COc1ccc2ccccc2c1N1CCN(CCN(C(=O)C2CCCCC2)c2ccccn2)CC1`, for which the IC50 at 5-HT1A receptor [1] (tested form: 2HCl) was determined as 147 nM.

Consider `COc1ccccc1N1CCN(CCN(C(=O)c2ccccc2)c2ccccn2)CC1`, for which the Ratio 5HT1A / α1 (binding selectivity) on 5-HT1A receptor [1] (tested form: 2HCl) came to 19.2. In addition, the results for the IC50 at 5-HT1A receptor [1] (tested form: 2HCl) and on α1 receptor (tested form: 2HCl) were 12 nM and 230 nM, respectively. Also, at 5-HT1A receptor [2] (tested form: 2HCl), the “5-HT1A antagonist activity MED” value was more than 10 mg/kg.

Take `COc1ccc2cccc(N3CCN(CCN(C(=O)C4CCCCC4)c4ccccn4)CC3)c2c1`: the Ratio 5HT1A / α1 (binding selectivity) at 5-HT1A receptor [1] (tested form: HCl) came out at 10. Also, the IC50 on 5-HT1A receptor [1] (tested form: HCl) came out at 4 nM; at α1 receptor (tested form: HCl), 40 nM.

Take `Cc1ccccc1N1CCN(CCN(C(=O)C2CCCCC2)c2ccccn2)CC1`: at 5-HT1A receptor [1] (tested form: 2HCl), the Ratio 5HT1A / α1 (binding selectivity) was 13 and the IC50 turned out to be 4.9 nM. In addition, the IC50 on α1 receptor (tested form: 2HCl) was 64 nM. Further, on 5-HT1A receptor [2] (tested form: 2HCl), the “5-HT1A antagonist activity MED” value was in the range of 3 to 10 mg/kg.

Regarding `COc1ccccc1N1CCN(CCN(C(=O)N2CCCCC2)c2ccccn2)CC1`, on 5-HT1A receptor [1] (tested form: 3HCl), the Ratio 5HT1A / α1 (binding selectivity) was 5.3 and the IC50 was determined as 14 nM. Besides, the IC50 at α1 receptor (tested form: 3HCl) was 74 nM. Besides, on 5-HT1A receptor [2] (tested form: 3HCl), the “5-HT1A antagonist activity MED” value is 10 mg/kg.

For `O=C(C1CCCCC1)N(CCN1CCN(c2nccc3ccccc23)CC1)c1ccccn1`, on 5-HT1A receptor [1] (tested form: 3HCl), the Ratio 5HT1A / α1 (binding selectivity) amounted to 520 and the IC50 came to 2.7 nM. Moreover, on α1 receptor (tested form: 3HCl), the IC50 came to 1400 nM. Besides, the “5-HT1A antagonist activity MED” value at 5-HT1A receptor [2] (tested form: 3HCl) is 10 mg/kg.

As for `O=C(C1CCCCC1)N(CCN1CCN(c2nsc3ccccc23)CC1)c1ccccn1`, on 5-HT1A receptor [1] (tested form: 2HCl), the Ratio 5HT1A / α1 (binding selectivity) stood at 93.9 and the IC50 was 4.1 nM. Besides, the IC50 at α1 receptor (tested form: 2HCl) is 385 nM. At 5-HT1A receptor [2] (tested form: 2HCl), the “5-HT1A antagonist activity MED” value is reported as more than 10 mg/kg.

For the compound `COc1ccccc1N1CCN(CCN(C(=O)C23CC4CC(CC(C4)C2)C3)c2ccccn2)CC1`, the Ratio 5HT1A / α1 (binding selectivity) on 5-HT1A receptor [1] (tested form: 2HCl) worked out at 12.4. Besides, the IC50 came to 3.7 nM at 5-HT1A receptor [1] (tested form: 2HCl) and 46 nM on α1 receptor (tested form: 2HCl). For the same compound, the “5-HT1A antagonist activity MED” value at 5-HT1A receptor [2] (tested form: 2HCl) is given as less than 10 mg/kg.

In the case of `COc1ccccc1N1CCN(CCN(C(=O)C2CCCCC2)c2nccs2)CC1`, at 5-HT1A receptor [1] (tested form: 2HCl), the Ratio 5HT1A / α1 (binding selectivity) stood at 2.5. Also, the IC50 on 5-HT1A receptor [1] (tested form: 2HCl) was 90 nM; on α1 receptor (tested form: 2HCl) it was 140 nM.

On to `COc1ccccc1N1CCN(C(C)CN(C(=O)C2CCCCC2)c2ccccn2)CC1` (stereo not drawn), for which, on 5-HT1A receptor [2] (tested form: 2HCl), the “5-HT1A antagonist activity MED” value fell in the range of 1 to 3 mg/kg.

As to `COc1ccccc1N1CCN([C@H](C)CN(C(=O)C2CCCCC2)c2ccccn2)CC1`, at 5-HT1A receptor [1], the Ratio 5HT1A / α1 (binding selectivity) is 104 and the IC50 was 3 nM. For the same compound, the IC50 at α1 receptor was 312 nM. On 5-HT1A receptor [2], the “5-HT1A antagonist Ratio (ED50 antagonist @ 3mg/kg po)/ED50 vehicle” value was 7.4 and the “5-HT1A antagonist activity MED” value came out at 0.3 mg/kg.
